{"source": "paper PMC12196810", "about": "“A Dual Bioassay for Evaluation of Embryotoxicity and Acute Toxicity of Common Solvents and Surfactants in Artemia salina” (Toxics, 2025)", "tested_on": "Artemia salina nauplii", "assay": "Brine shrimp lethality test", "conditions": "48 h exposure, 0.05–5.0% (w/v) tested"}
{"smiles": "Cc1ccc(S(=O)(=O)O)cc1.[Na]", "note": "[PTS, sodium p-toluenesulfonate]", "values": [{"measurement": "LC50", "result": 0.21, "unit": "%"}]}
